pEC50, pIC50, pKi: −log10 of the molar value.
How the values were obtained:
GCN2 kinase = GCN2 kinase (Homo sapiens (Human), UniProt Q9P2K8); assay: GCN2 Enzyme Inhibition Assay (Transcreener ADP2 fluorescence polarization); assay type: biochemical; conditions: 280 μM ATP, 200 μM (RS)7 peptide, 4 nM GCN2, 25° C.; for pIC50: read-out: GCN2 (IC50); for pKi: read-out: GCN2 (Ki), Ki(app)
[1] = biological target: intracellular GCN2 (phosphorylation of the GCN2 substrate eIF2α) (Homo sapiens (Human), UniProt Q9P2K8); assay: GCN2 Cellular Inhibition Assay (AlphaScreen SureFire P-eIF2α Ser51, borrelidin-treated U2OS cells); assay type: cell-based; conditions: read-out: GCN2 Biomarker (IC50), 10 μM borrelidin, 1 h, phosphorylated eIF2α Ser51
Description: Compounds can be screened for their ability to inhibit intracellular GCN2 using an AlphaScreen assay (Perkin Elmer) to detect phosphorylation of the GCN2 substrate eIF2α in borrelidin-treated cells. U2OS cells are plated at 5,000 cells per well in 384-well white polystyrene plates (Corning 3570) in McCoy's 5A media (GIBCO 26600-023) supplemented with 10% foetal bovine serum (SAFC 12103C), Penicillin/Streptomycin solution diluted 1:100 (Sigma P0781), and 2 mM L-glutamine (Sigma G7513), and allowed to adhere overnight at 37° C. in 5% CO2. Compounds are then added to the cell media from a final concentration of 40 μM in 4-fold serial dilutions. Borrelidin (FluoroChem M01440) is immediately added to the wells to a final concentration of 10 μM and the cells are incubated for 1 h at 37° C. in 5% CO2. After 1 h of treatment with borrelidin, the media is removed, and the cells are lysed with lysis buffer (TGR BioSceinces TGRLB) at ambient temperature.
An AlphaScreen SureFire P-eIF2α (Ser51) assay kit (Perkin Elmer TGREIF2S) was used to measure levels of eIF2α phosphorylated on Serine 51. Anti-phosphorylated eIF2α Ser51 antibody-linked acceptor beads (TGR BioScience 6760617) are added to the cell homogenate (diluted 1:250 into a mixture of activation (TGR BioScience TGRAB) and reaction buffer (TGR BioScience TGREIF2S) prepared immediately before use). The plate is then incubated for 2 h at ambient temperature in the dark. Anti-eIF2α antibody-linked donor beads (TGR BioScience 6760617) were then added (diluted 1:100 in dilution buffer (TGR BioScience TGRDB) prepared immediately before use). The plate is then incubated overnight at ambient temperature in the dark.
Plates are analyzed on an Alpha Technology-compatible PHERAstar FS plate reader (BMG Labtech Version 1.14) to quantify phosphorylated eIF2α Ser51 levels. The percentage inhibition of phosphorylated eIF2α is calculated by comparison to control wells stimulated with borrelidin alone.

Sequences of proteins named here, by UniProt entry; tags and fusion partners are left off.
UniProt Q9P2K8, whole entry: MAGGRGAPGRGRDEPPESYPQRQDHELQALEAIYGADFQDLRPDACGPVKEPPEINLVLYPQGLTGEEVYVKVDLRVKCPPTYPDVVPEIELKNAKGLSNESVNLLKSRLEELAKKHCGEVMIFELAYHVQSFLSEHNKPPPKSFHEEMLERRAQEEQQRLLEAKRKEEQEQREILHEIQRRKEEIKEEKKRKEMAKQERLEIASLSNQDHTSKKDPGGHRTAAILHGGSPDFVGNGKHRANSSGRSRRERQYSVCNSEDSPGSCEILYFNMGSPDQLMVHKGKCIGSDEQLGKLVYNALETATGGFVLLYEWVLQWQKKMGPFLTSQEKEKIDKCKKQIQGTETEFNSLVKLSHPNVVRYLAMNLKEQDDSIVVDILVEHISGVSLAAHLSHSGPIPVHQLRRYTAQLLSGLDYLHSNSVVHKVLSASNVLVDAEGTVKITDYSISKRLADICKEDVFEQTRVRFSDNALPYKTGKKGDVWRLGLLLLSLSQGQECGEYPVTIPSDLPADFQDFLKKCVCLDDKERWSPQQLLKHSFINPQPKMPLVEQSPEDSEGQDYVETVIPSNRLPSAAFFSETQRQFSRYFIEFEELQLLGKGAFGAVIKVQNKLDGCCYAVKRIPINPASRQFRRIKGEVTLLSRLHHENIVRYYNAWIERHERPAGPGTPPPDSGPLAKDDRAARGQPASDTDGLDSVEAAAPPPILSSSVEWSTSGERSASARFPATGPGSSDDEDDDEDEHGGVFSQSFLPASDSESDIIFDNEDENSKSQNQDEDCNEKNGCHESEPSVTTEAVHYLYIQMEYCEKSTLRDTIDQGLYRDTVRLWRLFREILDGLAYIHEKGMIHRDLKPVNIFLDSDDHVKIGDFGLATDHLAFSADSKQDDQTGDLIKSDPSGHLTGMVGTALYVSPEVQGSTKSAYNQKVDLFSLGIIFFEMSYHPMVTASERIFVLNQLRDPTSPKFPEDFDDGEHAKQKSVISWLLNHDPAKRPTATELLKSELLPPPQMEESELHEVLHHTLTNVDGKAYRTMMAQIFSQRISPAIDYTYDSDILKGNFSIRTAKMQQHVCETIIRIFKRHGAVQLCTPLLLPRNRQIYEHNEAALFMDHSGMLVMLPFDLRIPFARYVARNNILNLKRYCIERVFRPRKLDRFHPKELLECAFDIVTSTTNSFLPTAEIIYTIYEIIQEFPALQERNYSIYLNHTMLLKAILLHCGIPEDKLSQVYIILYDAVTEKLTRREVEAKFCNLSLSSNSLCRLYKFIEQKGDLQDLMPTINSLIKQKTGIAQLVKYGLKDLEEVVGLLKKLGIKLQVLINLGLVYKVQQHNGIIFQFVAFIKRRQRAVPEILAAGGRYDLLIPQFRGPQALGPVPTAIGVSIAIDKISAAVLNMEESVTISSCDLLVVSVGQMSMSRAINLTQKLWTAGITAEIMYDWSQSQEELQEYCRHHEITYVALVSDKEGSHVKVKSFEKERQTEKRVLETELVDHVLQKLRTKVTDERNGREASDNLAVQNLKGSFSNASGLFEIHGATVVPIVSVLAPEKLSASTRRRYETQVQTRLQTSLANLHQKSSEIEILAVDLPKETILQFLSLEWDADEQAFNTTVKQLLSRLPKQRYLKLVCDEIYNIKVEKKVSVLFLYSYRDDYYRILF

[2] = tested on: primary human pan T-cells; assay: Human IL-2 Assay for GCN2 Inhibition (IL-2 secretion from T cells in low amino acid condition); conditions: read-out: IL2/T-cell EC50; IL-2 secretion from human T cells stimulated with anti-CD3/CD28 in low amino acid condition; 96 hours; ELISA

SMILES	pIC50 (GCN2 kinase)	pIC50 [1]	pKi (GCN2 kinase)	pEC50 [2]
C[C@H]1C[C@H](c2cn[nH]c2)CN(c2nccc(-c3cnc4ccc(N5CCC5)cn34)n2)C1	7.00 to 8.00	> 6.30		
CC1C(CNS(C)(=O)=O)N(C2CC2)CCN1c1ccnc(-c2cnc3ccc(C(F)F)cn23)n1 (centres unmarked)	7.00 to 8.00	> 6.30		
CC(C)(C)OC(=O)N1C2CCCC1CN(c1ccnc(-c3cnc4ccc(C(F)(F)F)cn34)n1)C2	6.00 to 7.00			
Fc1cc2ncc(-c3nccc(N4CCOC(c5cn[nH]c5)C4)n3)n2cc1Br (centres unmarked)		> 6.30	> 8.00	
C[C@H]1C[C@H](c2cn[nH]c2)CN(c2nccc(-c3cnc4ccc(N5CC(F)(F)C5)cn34)n2)C1	> 8.00	> 6.30		> 7.00
C[C@@H]1C[C@H](c2cn[nH]c2)CN(c2nccc(-c3cnc4ccc(N5CCC5)cn34)n2)C1	> 8.00	> 6.30		
CC1CN(c2ccnc(-c3cnc4ccc(C(F)(F)F)cn34)n2)CC(c2cn[nH]c2)N1 (single isomer, unassigned)		> 6.30	> 8.00	
CC1CN(c2ccnc(-c3cnc4cc(F)c(Cl)cn34)n2)C(C)C(c2c[nH]cn2)N1 (centres unmarked)		5.30 to 6.30	> 8.00	
C[C@@H]1[C@H](CNS(C)(=O)=O)N(C2CC2)CCN1c1ccnc(-c2cnc3ccc(C(F)F)cn23)n1	6.00 to 7.00	5.30 to 6.30		
Cc1[nH]ncc1C1CC(F)CN(c2ccnc(-c3cnc4cc(F)c(C5CC5)cn34)n2)C1 (centres unmarked)	7.00 to 8.00			
C[C@H]1CN(c2ccnc(-c3cnc4ccc(C(F)F)cn34)n2)C[C@@H](CNS(C)(=O)=O)C1(F)F		5.30 to 6.30	> 8.00	
O=C(O)CC1CCCN(c2ccnc(-c3cnc4ccc(Cl)cn34)n2)C1 (centres unmarked)	7.00 to 8.00			
O=C(c1cnn(CCO)c1)N1CCN(c2ccnc(-c3cnc4ccc(C(F)(F)F)cn34)n2)CC1c1cn[nH]c1 (centres unmarked)	6.00 to 7.00			
COCCn1cc(C(=O)N2CCN(c3ccnc(-c4cnc5ccc(C(F)(F)F)cn45)n3)CC2c2cn[nH]c2)cn1 (centres unmarked)	7.00 to 8.00	5.30 to 6.30		
C[C@H]1[C@@H](CNS(C)(=O)=O)N(C2CC2)CCN1c1ccnc(-c2cnc3ccc(C(F)F)cn23)n1	> 8.00	> 6.30		
Cc1cc(C)n(CCC(=O)N2CCN(c3ccnc(-c4cnc5ccc(C(F)(F)F)cn45)n3)CC2c2cn[nH]c2)n1 (centres unmarked)	6.00 to 7.00	< 5.30		
